This test has as its system patient who had loss of taste and smell from COVID-19.
Where [1] appears, read: 3 months, 80 μg theophylline once per day, standard nasal spray device, pre treatment 10.
Where [2] appears, read: 3 months, 80 μg theophylline once per day, standard nasal spray device, pre treatment 11.
[3] abbreviates: 3 months, 80 μg theophylline once per day, standard nasal spray device, pre treatment 12.

The structures appear in SMILES notation.

With `Cn1c(=O)c2[nH]cnc2n(C)c1=O` [Theophylline, theophylline], for the setting “3 months vs baseline”, the “fold lower concentration of AA the patient could detect” value is 10^8 and the “improvement of recognition threshold (RT) of AA” value amounted to 8 bottle units. Also, under “3 months vs before treatment”, the “detection threshold and recognition threshold in all four odorant tests” value is “improved”. Also, under setting [1], the “DT Thio” value stood at 4 BU and the “RT Thio” value is given as 4 BU. Under setting [2], the “DT AA” value was determined as 4 BU, the “DT NO2B” value stood at 9 BU, the “DT Pyr” value came out at 7 BU and the “RT Pyr” value is listed as 7 BU. Also, under setting [3], the “RT AA” value is 4 BU and the “RT NO2B” value was determined as 9 BU.

(Values after patent US20260232678A1, “Nasal Spray for Phosphodiesterase Inhibitors” (Cyrano Therapeutics, Inc., priority 2022, published 2026).)
